Assay results as given in US3941842A, “P,P'-Disubstituted α-trichloromethylbenzylanilines” (priority 1972, dated 1976).

Tests used:
[1] = system: Phormia regina; settings: synergistic ratio: LD50 alone/LD50 synergized with piperonyl butoxide
Experimental: The compounds of the present invention were tested for insecticidal activity by standard methods, and compared with the insecticidal activities of DDT and symmetrical analogs of DDT, such methoxychlor. Toxicological methods for the determination of the topical LD50 values to adult female SNAIDM and RSP houseflies, Musca domestica L. and to Phormia regina, and LC50 values to Culex pipiens quinquefasciatus Say, and Anopheles albimanus Weid mosquitoes were described by Metcalf el al., 44 Bull. World Health Org. […] The methods for evaluation of metabolism by mouse liver homogenate and by female RSP housefly and salt-marsh caterpillar larvae Estigmene acrea Drury, were described by Kapoor et al., 18 J. Agr. […] The techniques for model eocsystem evluation were described by Metcalf et al., 5 J. Environ. Sci. Tech.
(§1) Since piperonyl butoxide serves to block the action of MFO, the synergized LD50 values express the intrinsic toxicity of the compounds. With the detoxifying action of MFO enzymes blocked, the intrinsic toxicity of the compounds can thus be measured.

[2] = Model ecosystem: distribution, ecological magnification and Biodegradability Index; settings: total recovered polar/total recovered nonpolar metabolites
Text: After the amounts of the various metabolites have been calculated and a determination is made as to which of the metabolites are to be designated as "polar" and which are to be designated as "non-polar", a Biodegradability Index (amount of polar metabolites/amount of nonpolar metabolites) may be calculated. Remembering that nonpolar compounds, such as DDT are readily soluble in the fatty tissues, but are not readily soluble in water based solutions, and that the cell fluid is essentially a water based solution, the lower the Biodegradability Index, the lower the amount of biodegradability of the compound. The higher the amount of polarity, the greater the likelihood that the polar compound will dissolve in water, a very polar compound, and be eliminated from the cell.
The environmental fate of any new pesticide is a factor of paramount importance in determining how and where it might be used. […]
It is of interest to compare the model ecosystem behavior of compound III in Table II, α-trichloromethyl-p-ethoxy benzyl-p-ethoxy aniline, "ethoxyaniline" of Table IV, with the corresponding DDT analog "ethoxychlor" [2,2-bis(p-ethoxyphenyl)-1,1,1-trichloroethane], as evaluated by Kapoor et al., 20(1) J. Agr. […]

[3] = system: Musca domestica (SNAIDM and RSP strains), Phormia regina, Culex fatigans and Anopheles albimanus; assay: Insecticidal activity over the test insects (Table II, summarised in words); format: in vivo; settings: synergism by piperonyl butoxide
Experimental: The compounds of the present invention were tested for insecticidal activity by standard methods, and compared with the insecticidal activities of DDT and symmetrical analogs of DDT, such methoxychlor. Toxicological methods for the determination of the topical LD50 values to adult female SNAIDM and RSP houseflies, Musca domestica L. and to Phormia regina, and LC50 values to Culex pipiens quinquefasciatus Say, and Anopheles albimanus Weid mosquitoes were described by Metcalf el al., 44 Bull. World Health Org. 363 (1971). The methods for evaluation of metabolism by mouse liver homogenate and by female RSP housefly and salt-marsh caterpillar larvae Estigmene acrea Drury, were described by Kapoor et al., 18 J. Agr. Food Chem. 1145 (1970). The techniques for model eocsystem evluation were described by Metcalf et al., 5 J. Environ. Sci. Tech. 709 (1971).
as §1

SMILES	SR, Phormia regina [1]	Biodegradability Index (B.I.) [2]	SR values (in words) [3]
CCOc1ccc(NC(c2ccc(OCC)cc2)C(Cl)(Cl)Cl)cc1 (stereo not drawn) [Compound III, α-trichloromethyl-p-ethoxybenzyl-p-ethoxyaniline]	3.7	2.0	
COc1ccc(NC(c2ccc(OC)cc2)C(Cl)(Cl)Cl)cc1 (stereo not drawn) [Compound II]	3.4		
Cc1ccc(NC(c2ccc(C)cc2)C(Cl)(Cl)Cl)cc1 (stereo not drawn) [IV]	1.6		
CCOc1ccc(C(Nc2ccc(Cl)cc2)C(Cl)(Cl)Cl)cc1 (stereo not drawn) [VII, α-trichloromethyl1p-ethoxybenzyl-p-chloroaniline]	1.2		
CCOc1ccc(C(Nc2ccc(C)cc2)C(Cl)(Cl)Cl)cc1 (stereo not drawn) [XI, α-trichloromethyl-p-ethoxybenzyl-p-methylaniline]	1.8		
CCCCOc1ccc(C(Nc2ccc(OC)cc2)C(Cl)(Cl)Cl)cc1 (stereo not drawn) [XVIII]	> 4		
COc1ccc(C(Nc2ccc(C)c(C)c2)C(Cl)(Cl)Cl)cc1 (stereo not drawn) [XXIII]	5.0		
COc1ccc(C(Nc2ccc(C)cc2C)C(Cl)(Cl)Cl)cc1 (stereo not drawn) [XXIV]	3.9		
COc1ccc(C(Nc2ccc(C3CCCCC3)cc2)C(Cl)(Cl)Cl)cc1 (stereo not drawn) [XXVII]	> 2		
COc1ccc(NC(c2ccc(N(C)C)cc2)C(Cl)(Cl)Cl)cc1 (stereo not drawn) [XXV]	> 3		high SR value
